Data on one molecule can be found in ChEMBL document CHEMBL4619808, “Tailoring the Physicochemical Properties of Antimicrobial Peptides onto a Thiazole-Based γ-Peptide Foldamer” (J Med Chem, 2020).

One data set deals with Bacillus subtilis. In words: Antimicrobial activity against Bacillus subtilis ATCC 6633 assessed as inhibition of microbial growth incubated for 24 hrs. Type of data set: functional. The conditions noted are these: ATCC 6633, 24 h. The gist of the method:
(§1)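 Broth microdilution. Strains grown overnight on TSA at 37°C, suspended to 10⁸ CFU/mL in Tryptone-Sel, then diluted to 10⁶ CFU/mL in double-strength Mueller-Hinton broth. Two-fold serial dilutions in sterile water (pH 7.4–7.7) mixed 1:1 with inoculum. Incubation 24 h at 37°C. MIC is the lowest concentration inhibiting growth. Duplicate wells, three independent experiments.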

The test system of a further data set is Staphylococcus aureus. In words: Antimicrobial activity against Staphylococcus aureus ATCC 6538 assessed as inhibition of microbial growth incubated for 24 hrs. Type of data set: functional. The settings on record: ATCC 6538, 24 h. The gist of the method: as §1
The next data set relates to Escherichia coli. In words: Antimicrobial activity against Escherichia coli ATCC 8739 assessed as inhibition of microbial growth incubated for 24 hrs. The settings on record: ATCC 8739, 24 h. Type of data set: functional. In short, it runs like this: as §1
For another data set, the system named is Pseudomonas aeruginosa. Briefly: Antimicrobial activity against Pseudomonas aeruginosa ATCC 9027 assessed as inhibition of microbial growth incubated for 24 hrs. Type of data set: functional. The conditions noted are these: ATCC 9027, 24 h. The gist of the method: as §1
Data set [1] can be described thus: Hemolytic activity in human RBC assessed as induction of hemolysis incubated for 1 hr. Type of data set: cell-based, Erythrocyte. The conditions noted are these: red blood cells (erythrocytes), read-out: HD50. The gist of the method: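 Human RBCs washed in PBS and used at 5% packed cell volume, mixed 1:1 with two-fold serial dilutions in PBS (pH 7.4–7.7). Incubation 1 h at 37°C, then centrifugation at 1500g for 10 min at 5°C. Supernatant absorbance read at 490 nm against PBS (0%) and 1% SDS/Tris (100%) controls. HC50 from three independent experiments, double duplicate.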

Structures are written as SMILES.

Regarding `CC[C@H](C)[C@H](NC(=O)CN)C(=O)NCC(=O)N[C@@H](C)C(=O)N[C@H](C(=O)N[C@@H](CC(C)C)C(=O)N[C@@H](CCCCN)C(=O)N[C@H](C(=O)N[C@@H](CC(C)C)C(=O)N[C@H](C(=O)N[C@H](C(=O)NCC(=O)N[C@@H](CC(C)C)C(=O)N1CCC[C@H]1C(=O)N[C@@H](C)C(=O)N[C@@H](CC(C)C)C(=O)N[C@H](C(=O)N[C@@H](CO)C(=O)N[C@@H](Cc1c[nH]c2ccccc12)C(=O)N[C@H](C(=O)N[C@@H](CCCCN)C(=O)N[C@@H](CCCNC(=N)N)C(=O)N[C@@H](CCCCN)C(=O)N[C@@H](CCCNC(=N)N)C(=O)N[C@@H](CCC(N)=O)C(=O)N[C@@H](CCC(N)=O)C(N)=O)[C@@H](C)CC)[C@@H](C)CC)[C@@H](C)O)[C@@H](C)O)C(C)C)C(C)C` [MELITTIN], the MIC with Bacillus subtilis came out at 0.8 µM; with Staphylococcus aureus, 0.9 µM; with Escherichia coli, 3.4 µM; in the data set on Pseudomonas aeruginosa it was 3.1 µM. For the same molecule, the HC50 at 1 h in data set [1] stood at 3000 nM.

The term MIC denotes the lowest concentration found to suppress growth.
